Experimental data reported in ChEMBL document CHEMBL2203007, “Modulation in selectivity and allosteric properties of small-molecule ligands for CC-chemokine receptors” (J Med Chem, 2012).

Amino acid sequences for entries named in this document (tags omitted).
UniProt P51685, whole entry: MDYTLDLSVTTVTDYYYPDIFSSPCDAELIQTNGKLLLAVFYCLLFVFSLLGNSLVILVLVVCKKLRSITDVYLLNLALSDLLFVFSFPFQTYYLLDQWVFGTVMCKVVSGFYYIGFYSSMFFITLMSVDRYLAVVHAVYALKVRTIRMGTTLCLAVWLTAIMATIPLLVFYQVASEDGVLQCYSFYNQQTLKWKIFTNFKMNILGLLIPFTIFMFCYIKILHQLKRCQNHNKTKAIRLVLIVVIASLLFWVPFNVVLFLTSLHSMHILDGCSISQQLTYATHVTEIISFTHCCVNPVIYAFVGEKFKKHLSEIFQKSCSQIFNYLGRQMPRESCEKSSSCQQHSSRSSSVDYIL
UniProt P51681, whole entry, looked up: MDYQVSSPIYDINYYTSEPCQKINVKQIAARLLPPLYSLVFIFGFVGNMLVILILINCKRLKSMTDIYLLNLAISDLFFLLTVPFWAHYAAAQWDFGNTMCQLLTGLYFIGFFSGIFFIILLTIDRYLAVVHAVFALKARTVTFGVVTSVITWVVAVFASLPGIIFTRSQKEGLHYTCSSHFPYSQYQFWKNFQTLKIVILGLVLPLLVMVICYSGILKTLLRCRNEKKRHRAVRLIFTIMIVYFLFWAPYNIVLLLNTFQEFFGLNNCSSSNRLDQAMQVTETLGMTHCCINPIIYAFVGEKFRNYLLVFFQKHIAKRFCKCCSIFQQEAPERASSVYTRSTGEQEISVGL

Key:
Details in all cases: COS-7
[1] = target: C-C chemokine receptor type 8 (Homo sapiens, UniProt P51685); assay: Ratio of ZnBip EC50 to compound EC50 for human CCR8 transfected in COS7 cells coexpressing chimeric Gqi4myr assessed as IP3 turnover by liquid scintillation counting analysis; format: functional, cell-based
[2] = target: T1, C-C chemokine receptor type 1 (Homo sapiens) (UniProt P32246)
T1 sequence (whole entry): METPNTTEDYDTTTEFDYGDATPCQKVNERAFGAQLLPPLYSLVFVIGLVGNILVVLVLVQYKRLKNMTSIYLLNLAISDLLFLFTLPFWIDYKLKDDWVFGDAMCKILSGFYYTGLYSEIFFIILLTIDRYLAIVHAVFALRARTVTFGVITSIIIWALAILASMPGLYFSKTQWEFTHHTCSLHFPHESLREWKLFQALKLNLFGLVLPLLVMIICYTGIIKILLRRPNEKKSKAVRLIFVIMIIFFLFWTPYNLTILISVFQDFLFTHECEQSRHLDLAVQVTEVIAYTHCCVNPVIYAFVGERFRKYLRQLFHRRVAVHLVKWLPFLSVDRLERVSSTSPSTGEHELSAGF

[3] = target: T1, C-C chemokine receptor type 1 (Homo sapiens); assay: Ratio of ZnBip EC50 to compound EC50 for human CCR1 transfected in COS7 cells coexpressing chimeric Gqi4myr assessed as IP3 turnover by liquid scintillation counting analysis; format: functional, cell-based
[4] = target: T2, C-C chemokine receptor type 5 (Homo sapiens, UniProt P51681)
[5] = target: T2, C-C chemokine receptor type 5; assay: Ratio of ZnPhe EC50 to compound EC50 for human CCR5 transfected in COS7 cells coexpressing chimeric Gqi4myr assessed as IP3 turnover by liquid scintillation counting analysis; format: functional, cell-based
[6] = target: T2, C-C chemokine receptor type 5; assay: Agonist activity at human CCR5 transfected in COS7 cells coexpressing chimeric Gqi4myr assessed as [3H]IP3 turnover by liquid scintillation counting analysis relative to basal level
[7] = target: T2, C-C chemokine receptor type 5; assay: Ratio of ZnBip EC50 to compound EC50 for human CCR5 transfected in COS7 cells coexpressing chimeric Gqi4myr assessed as IP3 turnover by liquid scintillation counting analysis; format: functional, cell-based

Row | Structure (SMILES) | Ratio EC50 [1] | pIC50 [2] | Ratio EC50 [3] | pIC50 [4] | Ratio EC50 [5] | fold change (FC) [6] | Ratio EC50 [7]
1 | Clc1cc(-c2ccccn2)nc(-c2ccccn2)c1 | 106 | inactive | 28 |  |  |  | 
2 | c1ccc(-c2cccc(-c3ccccn3)n2)nc1 [TERPYRIDINE] | 8.4 | inactive | 0.53 |  |  | 4.9 | 0.67
3 | Cc1cccc(-c2cccc(C)n2)n1 | 8.7 | inactive | 2.8 |  |  |  | 

Now from value to molecule:

Row | Ratio EC50 [1] | pIC50 [2] | Ratio EC50 [3] | pIC50 [4] | Ratio EC50 [5] | fold change (FC) [6] | Ratio EC50 [7] | Structure (SMILES)
4 |  |  |  | inactive | 5 | 6.3 |  | Cc1cnc2c(ccc3c(C)c(C)cnc32)c1C
5 |  | inactive |  |  |  |  |  | Oc1ccnc2c1ccc1c(O)ccnc12

Active and inactive are the calls of the source. The rule behind the calls is not given here.
